# In patent publication US10793514B2, “Glutamine transport inhibitors and methods for treating cancer” (Vanderbilt University, priority 2016, dated 2020):
# Sequences of proteins named here, by UniProt entry; tags and fusion partners are left off. A change or cut given only in a name is not applied to a line headed by its entry.
# UniProt D3ZJ25: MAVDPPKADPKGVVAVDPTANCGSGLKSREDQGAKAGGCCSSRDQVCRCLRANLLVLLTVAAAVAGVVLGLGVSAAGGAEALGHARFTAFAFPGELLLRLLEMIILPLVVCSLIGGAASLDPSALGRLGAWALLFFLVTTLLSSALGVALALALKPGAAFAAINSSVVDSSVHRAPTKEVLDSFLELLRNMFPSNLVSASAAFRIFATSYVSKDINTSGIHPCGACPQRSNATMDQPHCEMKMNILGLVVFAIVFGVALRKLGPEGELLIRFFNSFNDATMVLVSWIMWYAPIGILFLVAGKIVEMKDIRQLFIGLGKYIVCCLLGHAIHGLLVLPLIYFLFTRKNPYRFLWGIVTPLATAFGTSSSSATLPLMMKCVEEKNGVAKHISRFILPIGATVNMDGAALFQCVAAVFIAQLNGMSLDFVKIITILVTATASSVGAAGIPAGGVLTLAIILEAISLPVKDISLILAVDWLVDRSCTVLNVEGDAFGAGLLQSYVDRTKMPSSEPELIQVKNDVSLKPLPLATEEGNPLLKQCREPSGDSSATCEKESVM
# UniProt Q15758: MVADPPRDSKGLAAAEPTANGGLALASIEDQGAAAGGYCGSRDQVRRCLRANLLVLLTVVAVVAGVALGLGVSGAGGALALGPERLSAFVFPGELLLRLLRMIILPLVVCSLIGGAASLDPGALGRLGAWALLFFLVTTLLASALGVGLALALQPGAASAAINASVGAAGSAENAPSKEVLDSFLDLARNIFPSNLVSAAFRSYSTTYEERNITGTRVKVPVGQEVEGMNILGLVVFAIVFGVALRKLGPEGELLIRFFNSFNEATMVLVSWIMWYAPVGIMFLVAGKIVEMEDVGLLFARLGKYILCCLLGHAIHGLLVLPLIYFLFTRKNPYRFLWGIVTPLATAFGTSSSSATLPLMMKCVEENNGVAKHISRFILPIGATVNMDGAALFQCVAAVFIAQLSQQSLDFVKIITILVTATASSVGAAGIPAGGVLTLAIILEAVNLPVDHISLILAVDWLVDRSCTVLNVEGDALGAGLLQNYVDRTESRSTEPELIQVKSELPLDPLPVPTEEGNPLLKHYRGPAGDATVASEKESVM
# Tests used:
# [1] = molecular target: ASCT2 (Rattus norvegicus (Rat), UniProt D3ZJ25); assay: Inhibition of ASCT2-mediated glutamine uptake in C6 (rat) cells; type: cell-based; conditions: mean of at least 3 biological replicates
# [2] = molecular target: ASCT2 (Homo sapiens (Human), UniProt Q15758); assay: Inhibition of ASCT2-mediated 3H-glutamine uptake in live HEK293 (human) cells; type: cell-based; conditions: mean of at least 3 biological replicates
structure (smiles),measurement,setting,value
N[C@H](CCN(Cc1ccccc1OCc1cccc(C(F)(F)F)c1)Cc1ccccc1OCc1cccc(C(F)(F)F)c1)C(=O)O [Compound 23],IC50,[1],22.5 µM
same,IC50,[2],17.6 µM
